According to PMC9984387, “The dynamic nature of netrin-1 and the structural basis for glycosaminoglycan fragment-induced filament formation” (Nature Communications, 2023):
Where “and” joins values, the source holds several entries; their conditions need not be identical. Equal values may be shown once.

Tests used:
[1] = molecular target: NET1ΔC (netrin-1 domains LN and LE, Gallus gallus, aa 26-458), tag-free (Gallus gallus) (UniProt Q90922); experiment: SEC-MALS; NET1ΔC without heparin oligosaccharides; 3–5 mg/ml injected; 50 mM tris, pH 7.5, 200 mM NaCl, 25 °C; monomer to dimer
[2] = molecular target: NET1ΔC (netrin-1 domains LN and LE, Gallus gallus, aa 26-458), tag-free (Gallus gallus) (UniProt Q90922); experiment: AUC; sedimentation velocity, 13 µM NET1ΔC with equimolar or twofold molar excess of HO-dp8; 50 mM tris, pH 7.5, 200 mM NaCl
[3] = molecular target: NET1ΔC (netrin-1 domains LN and LE, Gallus gallus, aa 26-458), tag-free (Gallus gallus) (UniProt Q90922); experiment: AUC; sedimentation velocity, 13 µM NET1ΔC without heparin oligosaccharides; 50 mM tris, pH 7.5, 200 mM NaCl; monomer to dimer
[4] = molecular target: NET1ΔC (netrin-1 domains LN and LE, Gallus gallus, aa 26-458), tag-free (Gallus gallus) (UniProt Q90922); experiment: mass photometry; NET1ΔC incubated overnight with equimolar HO-dp10 (5 μM), diluted to 100 nM; 50 mM tris pH 8.5, 200 mM NaCl
[5] = molecular target: NET1ΔC (netrin-1 domains LN and LE, Gallus gallus, aa 26-458), tag-free (Gallus gallus) (UniProt Q90922); experiment: mass photometry; NET1ΔC incubated overnight with equimolar HO-dp8 (5 μM), diluted to 100 nM; 50 mM tris pH 8.5, 200 mM NaCl
[6] = molecular target: NET1ΔC (netrin-1 domains LN and LE, Gallus gallus, aa 26-458), tag-free (Gallus gallus) (UniProt Q90922); experiment: SEC-SAXS; tag-free chicken NET1ΔC without heparin oligosaccharides, 5.8 mg/ml in 20 mM tris, pH 7.5, 500 mM NaCl or 4.5 mg/ml in 50 mM tris, pH 7.5, 200 mM NaCl; monomer to dimer
[7] = molecular target: NET1ΔC (netrin-1 domains LN and LE, Gallus gallus, aa 26-458), tag-free (Gallus gallus) (UniProt Q90922); experiment: SEC-SAXS; tag-free NET1ΔC (9.23 mg/ml, 186 µM) with HO-dp8 or HO-dp10; 50 mM tris, pH 7.5, 0.2 M NaCl

In the case of “NET1ΔC (netrin-1 domains LN and LE, Gallus gallus, aa 26-458), tag-free (from UniProt Q90922 26-458) (domain or fragment)”, the stoichiometry N [1] is reported as 2, the stoichiometry N [2] is reported as 3 and 5 and the stoichiometry N [3] is reported as 2. The share of counts as hexamer [4] was 3.38%, the stoichiometry N [4] was 6 and the share of counts as dimer [5] was 12.4%. For the same substance, the stoichiometry N [5] was 2, the stoichiometry N [6] was 2 and the stoichiometry N [7] was over 5.
